{"sequences": {"note": "Sequences of proteins named here, by UniProt entry; tags and fusion partners are left off. Residues count along the entry.", "UniProt Q7NY09, 36-276 limits assumed": "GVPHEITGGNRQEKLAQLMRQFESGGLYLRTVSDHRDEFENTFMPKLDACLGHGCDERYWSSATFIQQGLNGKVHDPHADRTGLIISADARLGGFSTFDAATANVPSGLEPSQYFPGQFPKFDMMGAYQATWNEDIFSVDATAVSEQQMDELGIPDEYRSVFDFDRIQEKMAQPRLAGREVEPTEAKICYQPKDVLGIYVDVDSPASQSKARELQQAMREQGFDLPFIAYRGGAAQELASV"}, "source": "paper PMC10810742", "about": "“Crystal structure of bacterial ubiquitin ADP-ribosyltransferase CteC reveals a substrate-recruiting insertion” (The Journal of Biological Chemistry, 2023)", "molecular_target": "CteC_(36–276) (Chromobacterium violaceum) (UniProt Q7NY09)", "test": "ITC; MicroCal PEAQ-ITC; 480 μM CteC construct titrated with 4.8 mM Ub; 50 mM Hepes pH 7.3, 100 mM NaCl"}
{"substance": "ubiquitin (from UniProt P0CG48 1-76) (natural protein)", "values": [{"measurement": "Kd", "value": 119, "unit": "µM"}]}
